Legend:
Format in all cases: cell-based
[1] = molecular target: T1, m2 muscarinic acetylcholine receptor (CHRM2) (Homo sapiens, UniProt P08172); settings: 10 μM; high efficiency cleavage site; ARRB2-protease under HSV-TK promoter
T1 construct: expressed in transfected cells; host or cells: clone 41 (HEK-293T derivative)

The chains behind the UniProt entries cited, without tags or fusion partners.
UniProt P08172, whole entry: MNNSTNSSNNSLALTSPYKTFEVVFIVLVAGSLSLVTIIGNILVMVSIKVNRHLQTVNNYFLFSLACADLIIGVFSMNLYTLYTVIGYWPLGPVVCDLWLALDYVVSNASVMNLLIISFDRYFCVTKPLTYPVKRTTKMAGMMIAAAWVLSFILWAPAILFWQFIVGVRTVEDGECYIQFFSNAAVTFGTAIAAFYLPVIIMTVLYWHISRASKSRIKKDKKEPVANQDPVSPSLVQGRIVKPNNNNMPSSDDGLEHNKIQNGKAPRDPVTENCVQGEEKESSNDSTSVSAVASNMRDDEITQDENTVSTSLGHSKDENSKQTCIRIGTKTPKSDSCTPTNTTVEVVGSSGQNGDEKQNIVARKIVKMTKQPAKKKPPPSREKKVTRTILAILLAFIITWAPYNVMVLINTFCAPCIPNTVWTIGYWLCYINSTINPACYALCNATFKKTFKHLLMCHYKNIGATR
UniProt P08908, whole entry: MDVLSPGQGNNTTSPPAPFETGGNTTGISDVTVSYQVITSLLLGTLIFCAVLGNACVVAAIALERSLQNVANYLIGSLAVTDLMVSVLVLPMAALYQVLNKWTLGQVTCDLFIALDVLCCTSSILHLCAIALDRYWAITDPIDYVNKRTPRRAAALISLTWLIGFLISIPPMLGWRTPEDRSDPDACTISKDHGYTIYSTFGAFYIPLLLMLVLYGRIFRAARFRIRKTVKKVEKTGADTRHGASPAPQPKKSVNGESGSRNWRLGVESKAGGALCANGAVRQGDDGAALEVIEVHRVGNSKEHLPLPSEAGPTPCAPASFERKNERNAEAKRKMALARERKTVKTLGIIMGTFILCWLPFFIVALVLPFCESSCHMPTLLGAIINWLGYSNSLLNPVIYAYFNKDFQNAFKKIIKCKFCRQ

[2] = molecular target: serotonin receptor 1a (HTR1A) (Homo sapiens, UniProt P08908); settings: 10 μM; low efficiency cleavage site
[3] = molecular target: epidermal growth factor receptor (EGFR) (Homo sapiens, UniProt P00533); assay: EGFR-tTA / PLC Gamma1-TEV luciferase reporter assay in HTL5B8.1 cells; settings: 70 μM AG-494; 0.3 μM AG-1478; 2 mM RG-130022
[4] = molecular target: T2, human Type I Interferon Receptor (Homo sapiens, UniProt P17181+P48551); assay: IFNAR1-tTA / IFNAR2.2-TEV luciferase reporter assay in HTL5B8.1 cells; settings: 5000 U/ml, 18-20 hours
T2 sequence (P17181 28-557): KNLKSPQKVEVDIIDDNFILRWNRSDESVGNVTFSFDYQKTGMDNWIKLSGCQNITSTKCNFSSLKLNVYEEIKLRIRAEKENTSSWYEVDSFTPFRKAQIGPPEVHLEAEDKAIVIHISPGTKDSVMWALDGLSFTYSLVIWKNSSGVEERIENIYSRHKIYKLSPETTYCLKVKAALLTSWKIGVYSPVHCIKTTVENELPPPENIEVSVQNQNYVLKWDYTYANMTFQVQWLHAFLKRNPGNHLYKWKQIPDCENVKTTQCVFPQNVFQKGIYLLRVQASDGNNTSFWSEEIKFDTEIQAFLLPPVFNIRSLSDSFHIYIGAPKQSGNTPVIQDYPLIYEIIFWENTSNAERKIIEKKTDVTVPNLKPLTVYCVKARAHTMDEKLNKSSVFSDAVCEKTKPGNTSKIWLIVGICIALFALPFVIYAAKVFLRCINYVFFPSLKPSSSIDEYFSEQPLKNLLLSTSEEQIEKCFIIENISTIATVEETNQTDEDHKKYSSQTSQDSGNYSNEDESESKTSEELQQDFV
T2 sequence (P48551 27-515): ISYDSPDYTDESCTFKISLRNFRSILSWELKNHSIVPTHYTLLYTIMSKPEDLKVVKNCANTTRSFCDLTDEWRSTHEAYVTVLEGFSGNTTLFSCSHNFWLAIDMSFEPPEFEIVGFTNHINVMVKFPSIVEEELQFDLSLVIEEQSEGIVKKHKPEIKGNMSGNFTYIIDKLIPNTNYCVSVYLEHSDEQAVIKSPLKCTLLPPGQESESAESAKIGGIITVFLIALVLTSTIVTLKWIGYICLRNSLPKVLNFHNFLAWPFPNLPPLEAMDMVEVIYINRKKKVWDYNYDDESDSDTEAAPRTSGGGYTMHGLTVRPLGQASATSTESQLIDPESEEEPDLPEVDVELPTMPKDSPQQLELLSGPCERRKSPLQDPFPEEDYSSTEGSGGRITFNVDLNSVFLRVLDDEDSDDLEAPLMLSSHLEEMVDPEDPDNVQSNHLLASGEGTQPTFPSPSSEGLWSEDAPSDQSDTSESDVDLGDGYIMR

With C[N+](C)(C)CCOC(N)=O.[Cl-] [carbochol, carbamylcholine Cl] the “maximal response, induction of reporter gene expression over background” value [1] was 7.2 fold.
In the case of Br.CCCN(CCC)C1CCc2cccc(O)c2C1 (stereo not shown) [OH-DPAT, 8-hydroxy-DPAT HBr], the “maximal response, induction of reporter gene expression over background level” value [2] was 6.3 fold.
COc1cc2ncnc(Nc3cccc(Cl)c3)c2cc1OC [AG-1478] was tested, and the “induction of reporter gene activity by human Epidermal Growth Factor after prior treatment with tyrosine kinase inhibitor” value [3] was “blocked the induction of reporter gene activity”.
IFN-β: human interferon-beta was tested, and the “increase in reporter gene activity” value [4] was 10 fold.

— US20080274913A1, “Multiplex Array Useful for Assaying Protein-Protein Interaction” (priority 2005, published 2008)
